# Measured affinities in a library of Ab-91 heavy chain variants

The target is the same throughout: PDVDLGDISGINAS, from the HR2 region of SARS-CoV-2 spike.

The variants keep the light chain, the linker and the frameworks of Ab-91 (scFv order VL, a 15-residue (Gly4Ser)3 linker, VH).
VL: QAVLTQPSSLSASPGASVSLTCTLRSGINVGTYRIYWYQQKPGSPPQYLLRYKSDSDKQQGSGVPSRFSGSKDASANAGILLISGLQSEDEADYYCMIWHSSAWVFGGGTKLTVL
VH: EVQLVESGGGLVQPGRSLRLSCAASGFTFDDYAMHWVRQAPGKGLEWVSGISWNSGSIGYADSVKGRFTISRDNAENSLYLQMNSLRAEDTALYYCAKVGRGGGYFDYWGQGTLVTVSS

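The parent was found by panning a naive human phage display library on the peptide. Variants in AAYL51 differ from the parent at up to three CDR positions; double and triple changes were sampled at random. In AlphaSeq, yeast of one mating type display the scFv and yeast of the other type display the target. Mating (16 h, 30 °C) was followed by selection of diploids and sequencing of their barcodes. A regression on co-assayed BCL2-family reference pairs converts the normalised counts of each replicate to an apparent Kd. The assay was run in three technical replicates.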

Variants are written as CDR1, CDR2 and CDR3 of the heavy chain (limits as in the source). Parent: GFTFDDYAMH, GISWNSGSIGYADSVK, VGRGGGYFDY.
All variants listed here change Y60 of the VH, counted from its first residue.
The Kd shown is the geometric mean over detected replicates; a lower Kd is a better binder.
An entry "nd" has no value in the source: the pair was not observed among the diploids in any replicate. This suggests poor binding but is not conclusive.
As a blank, each scFv also met three strains without target: over library AAYL51, 21% of these pairings were detected, typically at 34 µM and seldom below 1.8 µM. The control count says in how many pairings with the empty strains this scFv gave a signal.

- GFTFDDYAMH | GISWNSRSIGWADSVK | VGRGGGYNDY: 22 µM (2 of 3 replicates; controls 1 of 9)
- GFTFDDYAMH | GISWNSGSIGGADSKD | VGRGGGYFDY: 42 µM (1 of 3 replicates; controls 1 of 9)
- GFTFDDEAMH | GISWNSGSIGAADSVK | VGRGGGYFDY: 1.8 µM (1 of 3 replicates; controls 2 of 9)
- GFTFDDYAMH | GWSWNSGSIGWADSVK | VGHGGGYFDY: nd (0 of 3 replicates; controls 0 of 9)
- GFPCDDYAMH | GISWNSGSIGWADSVK | VGRGGGYFDY: 24 µM (1 of 3 replicates; controls 1 of 9)
- GFTQDDHAMH | GISWNSGSIGEADSVK | VGRGGGYFDY: 120 µM (2 of 3 replicates; controls 1 of 9)
- GFTFDDLAMH | GISWNSGSIGLDDSVK | VGRGGGYFDY: 53 µM (3 of 3 replicates; controls 7 of 9)
- GFTFDDYAMH | GISWNNGSIGWADSVK | VGPGGGYFDY: nd (0 of 3 replicates; controls 0 of 9)
- GFTFDDYAMH | DISWNSGSIGTADSVL | VGRGGGYFDY: 80 µM (1 of 3 replicates; controls 1 of 9)
- WFHFDDYAMH | GISWNSGSIGPADSVK | VGRGGGYFDY: 11 µM (3 of 3 replicates; controls 3 of 9)
- GLTFDDYAMH | GISWNSGSIGWADSVK | VGRGGGYFDY: nd (0 of 3 replicates; controls 2 of 9)
- GFTFDDYAMH | GISWNSGSIGPADSVK | VGRGGGYFDY: 53 µM (3 of 3 replicates; controls 1 of 9)
- GFTFDDYAMH | GISWSSGSIGTADSVK | VGRGGGLFDY: nd (0 of 3 replicates; controls 0 of 9)
- GFTFDDYAMH | GISMNSGSIGWADSVK | VGRIGGYFDY: 7.1 µM (1 of 3 replicates; controls 1 of 9)
- GFTFDDYAMH | GISWNSGSIGHADSVK | VQRGGGYADY: 16 µM (1 of 3 replicates; controls 4 of 9)
- GFTFDDYAMH | GISWNSGSIGAADSVK | VGRGGLYFDY: nd (0 of 3 replicates; controls 0 of 9)
- GFTFDDYAMY | GISWNSGSIGFADSVK | VGRGGGYRDY: nd (0 of 3 replicates; controls 0 of 9)
- GFTFDDYAMH | GISWNSGSIGWADVVK | VGRGGLYFDY: nd (0 of 3 replicates; controls 1 of 9)
- GCTFDDYAMH | HISWNSGSIGKADSVK | VGRGGGYFDY: 6.5 µM (1 of 3 replicates; controls 1 of 9)
- GFTFDDYAMH | GIPWNSGSIGCADSVK | VGRGGEYFDY: nd (0 of 3 replicates; controls 0 of 9)
- GFTFDDYAMH | GIWWNSTSIGPADSVK | VGRGGGYFDY: 250 µM (3 of 3 replicates; controls 6 of 9)
- GFTFDDYAMH | GISWNSGSIGQADSVK | VGTGGGYFCY: nd (0 of 3 replicates; controls 1 of 9)
- GFTFDDYAMH | GISWCSGSIGCADSVK | VGRGGGYFDN: nd (0 of 3 replicates; controls 1 of 9)
- GFTFDDYAMH | GISSNSGSIGDADDVK | VGRGGGYFDY: 8.3 µM (2 of 3 replicates; controls 0 of 9)
- GFTFDDYAMH | GISWNSGSILGADSVK | VGRGGGIFDY: nd (0 of 3 replicates; controls 2 of 9)
- GFTFDDYAMH | GISPSSGSIGMADSVK | VGRGGGYFDY: 26 nM (3 of 3 replicates; controls 0 of 9)
- GFTFDDYAMH | GISWPSGSIEGADSVK | VGRGGGYFDY: nd (0 of 3 replicates; controls 2 of 9)
- GFTFDDYAMH | GISWNSGSIGGADQVK | VGRGQGYFDY: 60 µM (3 of 3 replicates; controls 4 of 9)
- GFTFDDYAMH | GISWNEGSIGLADSVK | VGRGGGYFQY: nd (0 of 3 replicates; controls 1 of 9)
- GFTFDDYAMH | GISWNSGSIGVADSVK | VGRGMGYFDY: nd (0 of 3 replicates; controls 0 of 9)
- GFTFDDAAEH | GISWNSGSIGHADSVK | VGRGGGYFDY: nd (0 of 3 replicates; controls 1 of 9)
- GFTFDDHAMH | GSSWNSGSIGNADSVK | VGRGGGYFDY: nd (0 of 3 replicates; controls 1 of 9)
- GFTFDDYAMH | GISWNSGSIGNADSSK | VGRGGGYFDE: nd (0 of 3 replicates; controls 0 of 9)
- GFTFDDYAMH | GISWNRGSIGDADSVK | VGRGGGYFDY: 6.7 µM (1 of 3 replicates; controls 0 of 9)

The first 2 entries again:

- GFTFDDYAMH | GISWNSRSIGWADSVK | VGRGGGYNDY -> 22 µM (2 of 3 replicates; controls 1 of 9)
- GFTFDDYAMH | GISWNSGSIGGADSKD | VGRGGGYFDY -> 42 µM (1 of 3 replicates; controls 1 of 9)

The measurements come from Engelhart et al. 2022 (doi:10.1038/s41597-022-01779-4) through the FLAb antibody collection.